These results are taken from patent US8962608B2, “Cycloalkylnitrile pyrazole carboxamides as janus kinase inhibitors” (Merck Sharp & Dohme Corp., priority 2011, dated 2015).
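Also: biochemical assay with HTRF read-out.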

The chains behind the UniProt entries cited, without tags or fusion partners. Residues count along the entry.
UniProt P23458, 875-1153: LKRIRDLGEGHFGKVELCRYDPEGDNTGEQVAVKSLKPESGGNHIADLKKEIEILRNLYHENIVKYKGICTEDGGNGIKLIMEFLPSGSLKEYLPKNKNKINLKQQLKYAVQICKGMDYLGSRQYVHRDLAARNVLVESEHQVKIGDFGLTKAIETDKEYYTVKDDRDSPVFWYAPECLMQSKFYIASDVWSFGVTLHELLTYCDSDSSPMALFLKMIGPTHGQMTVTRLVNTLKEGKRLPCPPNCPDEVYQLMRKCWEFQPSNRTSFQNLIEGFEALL

For this assay, the target named is JAK1 (recombinant purified GST-tagged catalytic domain) (Homo sapiens (Human), UniProt P23458). The assay can be described thus: biochemical.
`N#C[C@H]1CCCC[C@@H]1n1cc(C(N)=O)c(Nc2ccc(OC(F)(F)F)cc2)n1` (single isomer, unassigned) [Example 17-106, 1-[(1S,2S or 1R,2R)-2-cyanocyclohexyl]-3-{[4-(trifluoromethoxy)phenyl]amino}-1H-pyrazole-4-carboxamide]: the IC50 is 1 nM.
The same measure for `N#C[C@H]1C[C@H](O)CC[C@@H]1n1cc(C(N)=O)c(Nc2ccc(OC(F)F)nc2)n1` (single isomer, unassigned) [Example 25-1, 1-[(1S,2S,4R or 1R,2R,4S)-2-cyano-4-hydroxycyclohexyl]-3-{[6-(difluoromethoxy)pyridin-3-yl]amino}1H-pyrazole-4-carboxamide]: 8 nM; for `N#C[C@H]1C[C@@H](O)CC[C@@H]1n1cc(C(N)=O)c(Nc2ccc(OC(F)F)nc2)n1` (single isomer, unassigned) [Example 25-2, 1-[(1S,2S,4S or 1R,2R,4R)-2-cyano-4-hydroxycyclohexyl]-3-{[6-(difluoromethoxy)pyridin-3-yl]amino}-1H-pyrazole-4-carboxamide]: 2 nM.
For the compound `N#C[C@H]1C[C@H](O)CC[C@@H]1n1cc(C(N)=O)c(Nc2ccc(Cl)nc2)n1` (single isomer, unassigned) [Example 25-12, 3-[(6-chloropyridin-3-yl)amino]-1-[(1S,2S,4R or 1R,2R,4S)-2-cyano-4-hydroxycyclohexyl]-1H-pyrazole-4-carboxamide], the IC50 stood at 3 nM.
The same measure for `N#C[C@H]1C[C@H](O)CC[C@@H]1n1cc(C(N)=O)c(Nc2ccc(C(F)(F)F)c(F)c2)n1` (single isomer, unassigned) [Example 25-23, 1-[(1S,2S,4R or 1R,2R,4S)-2-cyano-4-hydroxycyclohexyl]-3-{[3-fluoro-4-(trifluoromethyl)phenyl]amino}-1H-pyrazole-4-carboxamide]: 2 nM; for `N#C[C@H]1C[C@H](OCC2CC2)CC[C@@H]1n1cc(C(N)=O)c(Nc2ccc([C@@H](O)C(F)(F)F)cc2)n1` (single isomer, unassigned) [Example 26-5, 1-[(1S,2S,4R or 1R,2R,4S)-2-cyano-4-(cyclopropylmethoxy)cyclohexyl]-3-({4-[(1R or 1S)-2,2,2-trifluoro-1-hydroxyethyl]phenyl}amino)-1H-pyrazole-4-carboxamide]: 2 nM; for `N#C[C@@H]1C[C@H](OCC2CC2)CC[C@H]1n1cc(C(N)=O)c(Nc2ccc([C@H](O)C(F)(F)F)cc2)n1` (single isomer, unassigned) [Example 26-6, 1-[(1R,2R,4R or 1S,2S,4S)-2-cyano-4-(cyclopropylmethoxy)cyclohexyl]-3-({4-[(1S or 1R)-2,2,2-trifluoro-1-hydroxyethyl]phenyl}amino)-1H-pyrazole-4-carboxamide]: 1 nM.
`N#C[C@H]1C[C@H](OCC2CC2)CC[C@@H]1n1cc(C(N)=O)c(Nc2ccc([C@H](O)C(F)(F)F)cc2)n1` (single isomer, unassigned) [Example 26-7, 1-[(1S,2S,4R or 1R,2R,4S)-2-cyano-4-(cyclopropylmethoxy)cyclohexyl]-3-({4-[(1S or 1R)-2,2,2-trifluoro-1-hydroxyethyl]phenyl]amino)-1H-pyrazole-4-carboxamide]: the IC50 worked out at 0.9 nM.
Consider `N#C[C@@H]1C[C@H](OCC2CC2)CC[C@H]1n1cc(C(N)=O)c(Nc2ccc([C@@H](O)C(F)(F)F)cc2)n1` (single isomer, unassigned) [Example 26-8, 1-[(1R,2R,4R or 1S,2S,4S)-2-cyano-4-(cyclopropylmethoxy)cyclohexyl]-3-({4-[(1R or 1S)-2,2,2-trifluoro-1-hydroxyethyl]phenyl}amino)-1H-pyrazole-4-carboxamide], for which the IC50 turned out to be 1 nM.
As to `N#C[C@H]1C[C@@H](OCC2CC2)CC[C@@H]1n1cc(C(N)=O)c(Nc2ccc(F)cc2)n1` (single isomer, unassigned) [Example 26-9, 1-[(1S,2S,4S or 1R,2R,4R)-2-cyano-4-(cyclopropylmethoxy)cyclohexyl]-3-[(4-fluorophenyl)amino]-1H-pyrazole-4-carboxamide], the IC50 was 4 nM.
The same measure for `N#C[C@@H]1C[C@@H](OCC2CC2)CC[C@H]1n1cc(C(N)=O)c(Nc2ccc(F)cc2)n1` (single isomer, unassigned) [Example 26-10, 1-[(1R,2R,4S or 1S,2S,4R)-2-cyano-4-(cyclopropylmethoxy)cyclohexyl]-3-[(4-fluorophenyl)amino]-1H-pyrazole-4-carboxamide]: 21 nM; for `N#C[C@H]1C[C@@H](OCC2CC2)CC[C@H]1n1cc(C(N)=O)c(Nc2ccc(F)cc2)n1` (single isomer, unassigned) [Example 26-11, 1-[(1R,2S,4S or 1S,2R,4R)-2-cyano-4-(cyclopropylmethoxy)cyclohexyl]-3-[(4-fluorophenyl)amino]-1H-pyrazole-4-carboxamide]: 350 nM.
The same measure for `CC(C)(C)N[C@H]1CC[C@H](n2cc(C(N)=O)c(Nc3ccc(Cl)cc3)n2)[C@@H](C#N)C1` (single isomer, unassigned) [Example 28-5, 1-((1R,2R,4R or 1S,2S,4S)-4-(tert-Butylamino)-2-cyanocyclohexyl)-3-((4-chlorophenyl)amino)-1H-pyrazole-4-carboxamide]: 1 nM; for `C[C@H](N[C@H]1CC[C@H](n2cc(C(N)=O)c(Nc3ccc(C(F)(F)F)nc3)n2)[C@@H](C#N)C1)C1CC1` (single isomer, unassigned) [Example 28-8, 1-[(1S,2S,4S or 1R,2R,4R)-2-cyano-4-{[(1S)-1-cyclopropylethyl]amino}cyclo-hexyl]-3-{[6-(trifluoromethyl)pyridin-3-yl]amino}-1H-pyrazole-4-carboxamide]: 5 nM.
`CC1(CN[C@@H]2CC[C@H](n3cc(C(N)=O)c(Nc4ccc(C(F)(F)F)cc4)n3)[C@@H](C#N)C2)COC1` (single isomer, unassigned) [Example 28-16, 1-[(1S,2S,4R or 1R,2R,4S)-2-cyano-4-{[(3-methyloxetan-3-yl)methyl]amino}cyclohexyl]-3-{[4-(trifluoromethyl)phenyl]amino}-1H-pyrazole-4-carboxamide]: the IC50 is 1 nM.
The same measure for `CN(C)[C@@H]1CC[C@@H](n2cc(C(N)=O)c(Nc3ccc(C(F)(F)F)nc3)n2)[C@H](C#N)C1` (single isomer, unassigned) [Example 28-18, 1-[(1R,2R,4R or 1S,2S,4S)-2-cyano-4-(dimethylamino)cyclohexyl]-3-{[6-(trifluoromethyl)pyridin-3-yl]amino}-1H-pyrazole-4-carboxamide]: 30 nM; for `C[C@H](N[C@@H]1CC[C@H](n2cc(C(N)=O)c(Nc3ccc(C(F)(F)F)nc3)n2)[C@@H](C#N)C1)C1CC1` (single isomer, unassigned) [Example 28-19, 1-[(1S,2S,4R or 1R,2R,4S)-2-cyano-4-{[(1S)-1-cyclopropylethyl]amino}cyclo-hexyl]-3-{[6-(trifluoromethyl)pyridin-3-yl]amino}-1H-pyrazole-4-carboxamide]: 31 nM; for `CN(C)[C@H]1CC[C@H](n2cc(C(N)=O)c(Nc3ccc(C(F)(F)F)nc3)n2)[C@@H](C#N)C1` (single isomer, unassigned) [Example 28-22, 1-[(1S,2S,4S or 1R,2R,4R)-2-cyano-4-(dimethylamino)cyclohexyl]-3-{[6-(trifluoromethyl)pyridin-3-yl]amino}-1H-pyrazole-4-carboxamide]: 8 nM.
